This is an account of results in ChEMBL document CHEMBL1134693, “Synthesis and comparative molecular field analysis (CoMFA) of symmetric and nonsymmetric cyclic sulfamide HIV-1 protease inhibitors” (J Med Chem, 2001).

Assay [1] deals with T1, Human immunodeficiency virus type 1 protease (Human immunodeficiency virus 1, UniProt Q72874). Nature of the assay: Inhibition of HIV-1 protease by fluorometric assay.
Assay [2] addresses T1, Human immunodeficiency virus type 1 protease. Briefly: Inhibition of recombinant HIV-1 protease measured by fluorometric assay.

Usually Ki stands for the dissociation constant of the complex between target and ligand, obtained from inhibition or displacement. Take `CNC(=O)c1cccc(CN2[C@@H](COc3ccccc3)[C@@H](O)[C@H](O)[C@H](COc3ccccc3)N(Cc3ccccc3)S2(=O)=O)c1`: the Ki in assay [1] and in assay [2] was 11 nM each time.
